In the assay the target is RET V804L (Homo sapiens (Human), UniProt P07949, V804L). The assay can be described thus: RET V804L Gatekeeper Mutant Assay at KM (Caliper electrophoretic mobility shift). Type of assay: biochemical. Conditions: 10 μM ATP, 25° C., 120 minutes; read-out: V804L Mutant (RET Inhibitory Activity).

Chains of the proteins cited; added tags and fusions are not shown. Residues count along the entry.
UniProt P07949, 29-1114 V804L: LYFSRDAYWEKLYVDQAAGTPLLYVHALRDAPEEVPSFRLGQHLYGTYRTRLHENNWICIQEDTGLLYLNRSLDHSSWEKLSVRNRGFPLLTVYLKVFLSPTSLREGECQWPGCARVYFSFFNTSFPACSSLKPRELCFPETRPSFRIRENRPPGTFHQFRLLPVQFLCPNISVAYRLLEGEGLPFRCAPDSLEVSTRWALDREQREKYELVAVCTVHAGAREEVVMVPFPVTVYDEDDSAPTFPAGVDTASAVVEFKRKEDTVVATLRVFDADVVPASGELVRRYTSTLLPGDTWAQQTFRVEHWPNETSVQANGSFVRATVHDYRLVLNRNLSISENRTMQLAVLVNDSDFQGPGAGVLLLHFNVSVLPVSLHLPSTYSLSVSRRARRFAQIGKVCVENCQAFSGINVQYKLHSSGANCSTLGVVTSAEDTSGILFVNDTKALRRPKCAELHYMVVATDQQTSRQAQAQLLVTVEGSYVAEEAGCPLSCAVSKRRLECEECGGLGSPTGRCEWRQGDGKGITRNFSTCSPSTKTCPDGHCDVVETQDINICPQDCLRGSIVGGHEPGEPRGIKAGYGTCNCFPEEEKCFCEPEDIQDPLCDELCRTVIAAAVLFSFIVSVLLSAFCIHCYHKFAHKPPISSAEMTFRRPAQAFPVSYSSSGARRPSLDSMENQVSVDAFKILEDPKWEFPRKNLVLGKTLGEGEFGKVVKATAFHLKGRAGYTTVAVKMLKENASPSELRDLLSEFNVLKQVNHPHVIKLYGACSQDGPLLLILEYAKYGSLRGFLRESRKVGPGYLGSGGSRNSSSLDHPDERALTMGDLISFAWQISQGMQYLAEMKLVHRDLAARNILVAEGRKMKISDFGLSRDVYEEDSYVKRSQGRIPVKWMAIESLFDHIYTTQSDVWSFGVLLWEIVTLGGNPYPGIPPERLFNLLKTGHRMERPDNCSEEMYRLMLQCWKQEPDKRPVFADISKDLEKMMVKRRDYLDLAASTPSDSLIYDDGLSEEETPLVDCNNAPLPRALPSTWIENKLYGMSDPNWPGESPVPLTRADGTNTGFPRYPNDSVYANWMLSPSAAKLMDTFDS

pIC50: −log10 of the molar value. Some results are limits rather than exact numbers.

With `Cc1cc(Nc2cc(C)[nH]n2)nc([C@H]2C[C@H](C(=O)NCc3ccc(-n4cccn4)nc3)C2)c1` [Compound 100], the pIC50 is at least 9.00.

Regarding `Cc1cc(Nc2cc(C)[nH]n2)nc([C@H]2C[C@H](C(=O)N[C@H](C)c3ccc(-n4cccn4)nc3)C2)c1` [Compound 101], the pIC50 was at least 9.00.

Take `Cc1cc(Nc2cc(C)[nH]n2)nc([C@H]2C[C@H](C(=O)N[C@@H](C)c3ccc(-n4cc(F)cn4)nc3)C2)c1` [Compound 102]: the pIC50 is at least 9.00.

Regarding `Cc1cc(Nc2cc(C)[nH]n2)nc([C@H]2C[C@@H](C(=O)N[C@@H](C)c3ccc(-n4cc(F)cn4)nc3)C2)c1` [Compound 103], the pIC50 was 8.00 to 9.00.

Consider `Cc1cc(Nc2cc(C)[nH]n2)nc([C@H]2C[C@H](C(=O)N[C@H](C)c3cnc(-n4cc(F)cn4)cn3)C2)c1` [Compound 104], for which the pIC50 is at least 9.00.

Consider `Cc1cc(Nc2cc(C)[nH]n2)nc([C@H]2C[C@H](C(=O)N[C@@H](C)c3ccc(-n4cc(F)cn4)nc3)C2)n1` [Compound 105], for which the pIC50 is at least 9.00.

As to `Cc1cc(Nc2cc(C)[nH]n2)nc([C@H]2C[C@@](C)(C(=O)N[C@@H](C)c3ccc(-n4cc(F)cn4)nc3)C2)n1` [Compound 107, (1S,3R)—N—((S)-1-(6-(4-fluoro-1H-pyrazol-1-yl)pyridin-3-yl)ethyl)-1-methyl-3-(4-methyl-6-((5-methyl-1H-pyrazol-3-yl)amino)pyrimidin-2-yl)cyclobutane-1-carboxamide], the pIC50 is 8.00 to 9.00.

As to `Cc1cc(Nc2cc(C)[nH]n2)nc([C@H]2C[C@](C)(C(=O)N[C@@H](C)c3ccc(-n4cc(F)cn4)nc3)C2)n1` [Compound 108, (1R,3S)—N—((S)-1-(6-(4-fluoro-1H-pyrazol-1-yl)pyridin-3-yl)ethyl)-1-methyl-3-(4-methyl-6-((5-methyl-1H-pyrazol-3-yl)amino)pyrimidin-2-yl)cyclobutane-1-carboxamide], the pIC50 was at least 9.00.

For `Cc1cc(Nc2cc(C)[nH]n2)nc([C@]2(O)C[C@@H](C(=O)N[C@@H](C)c3ccc(-n4cc(F)cn4)nc3)C2)c1` [Compound 109], the pIC50 was at least 9.00.

Consider `Cc1cc(Nc2cc(C)[nH]n2)nc([C@H]2C[C@](C)(C(=O)N[C@@H](C)c3cnc(-n4cc(F)cn4)cn3)C2)n1` [Compound 110], for which the pIC50 is at least 9.00.

For `Cc1cc(Nc2cc(C)[nH]n2)nc([C@]2(F)C[C@H](C(=O)N[C@@H](C)c3ccc(-n4cc(F)cn4)nc3)C2)c1` [Compound 113, (1S,3R)-3-fluoro-N—((S)-1-(6-(4-fluoro-1H-pyrazol-1-yl)pyridin-3-yl)ethyl)-3-(4-methyl-6-(5-methyl-1H-pyrazol-3-ylamino)pyridin-2-yl)cyclobutanecarboxamide], the pIC50 was 7.00 to 8.00.

As for `Cc1cc(Nc2cc(C)[nH]n2)nc([C@]2(F)C[C@@H](C(=O)N[C@@H](C)c3ccc(-n4cc(F)cn4)nc3)C2)c1` [Compound 114], the pIC50 was 8.00 to 9.00.

Consider `Cc1cc(Nc2cc(C)[nH]n2)nc([C@]2(O)C[C@@H](C(=O)N(C)[C@@H](C)c3ccc(-n4cc(F)cn4)nc3)C2)c1` [Compound 116], for which the pIC50 was 8.00 to 9.00.

As for `CO[C@]1(c2cc(C)cc(Nc3cc(C)[nH]n3)n2)C[C@H](C(=O)N[C@@H](C)c2ccc(-n3cc(F)cn3)nc2)C1` [Compound 117, (1S,3R)—N—((S)-1-(6-(4-fluoro-1H-pyrazol-1-yl)pyridin-3-yl)ethyl)-3-methoxy-3-(4-methyl-6-((5-methyl-1H-pyrazol-3-yl)amino)pyridin-2-yl)cyclobutane-1-carboxamide], the pIC50 is 7.00 to 8.00.

With `Cc1cc(Nc2cc(C)[nH]n2)nc([C@]2(O)C[C@](C)(C(=O)N[C@@H](C)c3ccc(-n4cc(F)cn4)nc3)C2)c1` [Compound 118], the pIC50 was above 7.00.

In the case of `Cc1cc(Nc2cc(C)[nH]n2)nc([C@]2(O)C[C@@](C)(C(=O)N[C@@H](C)c3ccc(-n4cc(F)cn4)nc3)C2)c1` [Compound 119], the pIC50 is at least 9.00.

In the case of `CO[C@]1(C(=O)N[C@@H](C)c2ccc(-n3cc(F)cn3)nc2)C[C@H](c2cc(C)cc(Nc3cc(C)[nH]n3)n2)C1` [Compound 120], the pIC50 was at least 9.00.

For `CO[C@]1(C(=O)N[C@@H](C)c2ccc(-n3cc(F)cn3)nc2)C[C@H](c2nc(C)cc(Nc3cc(C)[nH]n3)n2)C1` [Compound 121], the pIC50 is at least 9.00.

In the case of `CO[C@]1(C(=O)N[C@@H](C)c2ccc(-n3cc(F)cn3)nc2)C[C@H](c2cc(C)nc(Nc3cc(C)[nH]n3)n2)C1` [Compound 122], the pIC50 was at least 9.00.

Consider `CO[C@]1(C(=O)N[C@@H](C)c2cnc(-n3cc(F)cn3)cn2)C[C@H](c2nc(C)cc(Nc3cc(C)[nH]n3)n2)C1` [Compound 123], for which the pIC50 is at least 9.00.

As to `CO[C@]1(C(=O)N[C@@H](C)c2cnc(-n3cc(F)cn3)cn2)C[C@H](c2cc(C)nc(Nc3cc(C)[nH]n3)n2)C1` [Compound 124], the pIC50 was at least 9.00.

For the molecule `Cc1cc(Nc2cc(C)[nH]n2)nc([C@]2(F)C[C@](C)(C(=O)N[C@@H](C)c3ccc(-n4cc(F)cn4)nc3)C2)c1` [Compound 126], the pIC50 is above 7.00.

Turning to `CO[C@]1(C(=O)N[C@@H](C)c2ccc(-n3cc(F)cn3)nc2)C[C@](O)(c2cc(C)cc(Nc3cc(C)[nH]n3)n2)C1` [Compound 127], the pIC50 is at least 9.00.

`CO[C@]1(C(=O)N[C@@H](C)c2ccc(-n3cc(F)cn3)nc2)C[C@@](O)(c2cc(C)cc(Nc3cc(C)[nH]n3)n2)C1` [Compound 128]: the pIC50 is above 7.00.

Source of the values: patent US10183928B2, “Inhibitors of RET” (BLUEPRINT MEDICINES CORPORATION, priority 2016, dated 2019).
